Results on one molecule are retold here after ChEMBL document CHEMBL3864121, “Development of ebsulfur analogues as potent antibacterials against methicillin-resistant Staphylococcus aureus” (Bioorg Med Chem, 2016).

Assay [1] deals with Acinetobacter baumannii. The experiment in a line: Antibacterial activity against Acinetobacter baumannii ATCC 19606 measured after overnight incubation by broth double-dilution method. Format: functional. A digest of the protocol: (§1)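 MIC by broth double-dilution in Mueller-Hinton medium. Re-testing at the time-kill inoculum used 1×10^6 CFU/mL.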
Assay [2] has as its system Enterococcus faecalis. Briefly: Antibacterial activity against Enterococcus faecalis ATCC 49533 measured after overnight incubation by broth double-dilution method. Format: functional. The procedure, abridged:
as §1

Assay [3] deals with Staphylococcus epidermidis. Briefly: Antibacterial activity against Staphylococcus epidermidis ATCC 35984 measured after overnight incubation by broth double-dilution method. In kind it is functional. As to conditions: RP62A. The procedure, abridged: as §1
Assay [4] has as its system Staphylococcus epidermidis. The experiment in a line: Antibiofilm activity against Staphylococcus epidermidis ATCC 35984 assessed as reduction of biofilm at […] measured after 24 hrs by crystal violet staining based method relative to control. Details: scale not given: the % may be the effect or the level left. Format: functional, RP62A.
Assay [5] relates to Klebsiella pneumoniae. Briefly: Antibacterial activity against Klebsiella pneumoniae ATCC 27736 measured after overnight incubation by broth double-dilution method. In kind it is functional. A digest of the protocol:
(§2)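 MIC by broth double-dilution in liquid Mueller-Hinton medium. Values are reported in µg/mL.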

Assay [6] has as its system Pseudomonas aeruginosa. The experiment in a line: Antibacterial activity against Pseudomonas aeruginosa ATCC 27853 measured after overnight incubation by broth double-dilution method. In kind it is functional. The procedure, abridged:
as §1

The test system of assay [7] is Salmonella enterica. The experiment in a line: Antibacterial activity against Salmonella enterica ATCC 14028 measured after overnight incubation by broth double-dilution method. In kind it is functional. The procedure, abridged:
as §1

For assay [8], the system named is Enterococcus. Briefly: Antibacterial activity against Vancomycin-resistant Enterococcus measured after overnight incubation by broth double-dilution method. In kind it is functional. The procedure, abridged:
as §2

Assay [9] deals with Enterobacter cloacae. The experiment in a line: Antibacterial activity against Enterobacter cloacae ATCC 13047 measured after overnight incubation by broth double-dilution method. In kind it is functional. The settings on record: subsp. cloacae ATCC 13047. The procedure, abridged:
as §2

In assay [10] the test system is Staphylococcus epidermidis. Briefly: Antibacterial activity against Staphylococcus epidermidis ATCC 12228 measured after overnight incubation by broth double-dilution method. In kind it is functional. The procedure, abridged: as §1
For assay [11], the system named is Escherichia coli. The experiment in a line: Antibacterial activity against Escherichia coli MC1061 measured after overnight incubation by broth double-dilution method. In kind it is functional. The procedure, abridged: as §2
Assay [12] has as its system Enterococcus faecalis. Briefly: Antibacterial activity against Enterococcus faecalis ATCC 29212 measured after overnight incubation by broth double-dilution method. In kind it is functional. A digest of the protocol:
as §1

In brackets after ≈: the same amount, converted by molar mass.

The MIC is the lowest concentration found to suppress growth. `O=c1c2ccccc2sn1-c1ccccc1`: the MIC in assay [1] came to 15.6 mg/L (≈ 68.6 µM); in assay [2], 15.6 mg/L (≈ 68.6 µM); in [3], 1 mg/L (≈ 4.4 µM); in assay [5], 62.5 mg/L (≈ 275 µM); in [6], 62.5 mg/L (≈ 275 µM); in assay [7], 125 mg/L (≈ 550 µM). For the same molecule, the minimum inhibitory concentration (MIC) was found to be 1 mg/L (≈ 4.4 µM) in assay [8]; 125 mg/L (≈ 550 µM) in assay [9]; 125 mg/L (≈ 550 µM) in assay [10]; 31.3 mg/L (≈ 138 µM) in [11]; 31.3 mg/L (≈ 138 µM) in [12]. Besides, the Activity in assay [4] was found to be 50%.
